These are literature values, as cited in patent US7198946B2, “Screening for agents effective in decreasing abnormal macrophages associated with amyotrophic lateral sclerosis” (Pathologica, LLC, priority 2001, dated 2007).

Molecules are shown by their SMILES.

The subject of this data set is patients with ALS. The note with it: Bensimon et al. 1994; Lacomblez et al. 1996; cited from earlier work.

Consider `Nc1nc2ccc(OC(F)(F)F)cc2s1` [riluzole], for which the “survival of patients with ALS” value is given as “statistically significant effects on survival”.
